In patent US4857530A, “Substituted quinazolinones as anticancer agents” (Warner-Lambert Company, priority 1987, dated 1989):

Tested on: L1210 murine leukemia cell line
Test: growth inhibition of L1210 murine leukemia cell line in vitro
Format: cell-based
Settings: Mus musculus, L1210, 72 h
Method: The compounds of formula I were also tested against the L1210 murine leukemia cell line in vitro.
A cell culture of the L1210 murine leukemia cell line is grown in RPMI 1640 culture medium supplemented with 5% fetal bovine serum containing gentamicin (50 micrograms per milliliter). Dilutions of the test compound are prepared in the appropriate solvent and 20 microliters of each dilution are added to a 24-well Linbro tissue culture plate, followed by the addition of 2.0 ml of cell suspension containing 3×10^4 cells/milliliter. Solvent and medium controls are included in each test.
After incubation at 37° C. for three days in 5% CO2, the contents of each well are removed and the cells are counted in a ZBI Coulter counter.

IC50: 26.1 µM
SMILES: C#CCN(Cc1ccc2nc(N)[nH]c(=O)c2c1)c1ccc(F)cc1 [Example 2f, 2-Amino-6-[[(4-fluorophenyl)-2-propynylamino]methyl]-4(3H)-quinazolinone]
